The values below come from patent US20250176553A1, “SOLUTION FOR […] AND METHOD OF PRODUCING THEREOF” (OCT, Inc., priority 2022, published 2025).

This test has as its system Streptococcus mutans biofilms. As to conditions: pH 2.7; individual samples 1-6; 590 nm; 24 hours culture. The source says:
FIGS. 3 to 6 show the experimental results in which Streptococcus mutans strains are actually used. Streptococcus mutans is a facultative anaerobe and a gram-positive streptococcus. It produces insoluble, sticky glucans that stick to tooth surfaces. It is one of the bacteria that mainly cause dental caries. THB (TODD-HEWITT BROTH) supplemented with 2% (w/v) sucrose was used as the medium. Sucrose is a sugar composed of the monosaccharides glucose and fructose with an α-1,2-glycosidic linkage and one of the disaccharides. THB manufactured by Becton, Dickinson and Company was used. For sucrose, “CASRN” manufactured by FUJIFILM Wako Pure Chemical Corporation was used. The plate used for culture was a Thermo Scientific Nunclon Delta Surface 96 well. The incubator used was a Panasonic multi-gas incubator MCO-5MUV-PJ. Culturing was conducted at 37° C. under an atmosphere of 5% CO2 gas, 5% O2 gas and 90% N2 gas.
Devices and the like used to measure residual biofilms are described below. […]
Life Technologies EVOS XL Core was used as the microscope for photography. […] The data processing software was “SF6” and the absorbance wavelength was 590 nm. […]
Crystal Violet was then extracted with 100 μL of 99.5% ethanol (FUJIFILM Wako Pure Chemical Corporation), and the absorbance was measured at a wavelength of 590 nm using an absorption spectrometer grating microplate reader.

In turn, `[2H]OS(=O)(=O)O[2H]` [deuterated sulfuric acid (D2SO4)] had an Absorbance of 0.808.
